Assay results reported in patent US4634706A, “Griseolic acid derivatives, and their use as enzyme inhibitors” (Sankyo Company Limited, priority 1983, dated 1987).

Test system: cerebral blood flow
Test: Improving cerebral blood flow
Assay type: in vivo, rabbit
Excerpt: The "duration (T1/2)" is the time in minutes required for the increase in cerebral blood flow to reduce by one half.

SMILES: COc1ccc(Cc2nccc3cc(OC)c(OC)cc23)cc1OC [Papaverine, papaverine]
- Increase in cerebral blood flow (Vp), ratio to papaverine 1 mg/kg: 1.0
- Duration (T 1/2) (1 mg/kg): 2.4 min
